Compounds with a hit are over-represented: about 16% of the library has one in this group of screens.
miR-21 reporter: miR-21 reporter, rising signal | HeLa miR-21 FLuc reporter, luciferase, 48 h | Potency, µM (highest dose often 38.3 µM), for inactives: at the top dose reporter change, positive = more light | 340,000 tested, under 10 active | AID 2288; active = well fitted rising curve with a large enough effect; inconclusive = small, poorly fitted or top-dose-only effect; inactive = no such curve, though single readings can be large or run the other way;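 further: % of control where 0% means no effect; miR-21 action dims this reporter so a rising signal means less miR-21 action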
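HeLa cells stably expressing CMV-driven firefly luciferase with a downstream miR-21 binding sequence, endogenously expressing miR-21, were treated with titrations (up to about 40uM final) for 48 hours at 37 degree Celsius. Luciferase luminescence was read after lysis.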
TDP1 cell noCPT: qHTS for Inhibitors of human tyrosyl-DNA phosphodiesterase 1 (TDP1): qHTS in cells in absence of CPT; Potency, µM (top dose mostly 46.2 µM), for the others: at the highest dose activity change, negative = growth inhibition, usual class: inhibitors; 15% of 420,000 active; DT40 Tdp1-/- hTDP1 cells, no CPT, ATP luminescence, 48 h; AID 686978, 2013; further: potency means the concentration at half of the fitted maximal effect; on the % scale 0 is the no-effect control and ±100 the full control effect; nearly all actives have a fitted effect of over 55% in size
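DT40 Tdp1-/-;hTDP1 cells, no CPT (DMSO vehicle only), 400 cells/well; compounds pin-transferred; ≥48 hr, 37 °C; CellTiter-Glo 30 min RT dark, luminescence read.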
uPA generation: blocks generation of uPA at the cell surface | cell surface uPA generation assay, qHTS | Potency, µM (top dose mostly 38.3 µM), for inactives: top-dose activity change, negative = inhibition, hits mostly inhibitors | 0.31% of 330,000 active; active means well fitted inhibition curve with a large enough effect; inconclusive means small, poorly fitted or top-dose-only effect; inactive means no such curve, though single readings can be large or run the other way; tested in mouse RAW 264.7 cells; further: potency means the concentration at half of the fitted maximal effect; on the % scale 0 is the no-effect control and ±100 the full control effect; nearly all actives have a fitted effect of over 55% in size
TDP1 cell CPT: DT40-hTDP1 cell growth loss with CPT; chicken DT40 Tdp1-/-;hTDP1 cells + 20 nM CPT, ATP luminescence, 48 h; Potency, µM (series often up to 46.2 µM), for inactives: at the top dose activity change, negative = growth inhibition, usual class: inhibitors; 12% of 420,000 active; further: potency means the concentration at half of the fitted maximal effect; on the % scale 0 is the no-effect control and ±100 the full control effect; nearly all actives have a fitted effect of over 55% in size
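Chicken DT40 Tdp1-/- cells complemented with human TDP1, 400 cells/well, exposed to compounds plus 20 nM camptothecin for at least 48 h at 37 C; viability read as ATP content by CellTiter-Glo luminescence.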
TDP1 inh: blocks human tyrosyl-DNA phosphodiesterase 1. Q9NUW8. recombinant TDP1, AlphaScreen DNA substrate cleavage. Potency, µM (highest dose often 130 µM), inactives show at the top dose activity change, negative = inhibition, actives largely listed as inhibitors. 0.28% of 350,000 active; further: potency means the concentration at half of the fitted maximal effect; on the % scale 0 is the no-effect control and ±100 the full control effect; nearly all actives have a fitted effect of over 40% in size
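AlphaScreen read-out: signal falls as enzyme removes the 3' tyrosine-FITC from a 5'-biotinylated DNA oligo (15 nM, 5 min, RT). Enzyme was E. coli-made recombinant Tdp1 at 1 nM, exposed to compound for 15 min beforehand; beads 10 ug/ml, 10 min.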
Active calls of the source: *; ? = inconclusive; · = not tested or not shown; [ ] = remark or other dose. Unless noted, the call rests on the fitted dose curve; in most records, active means well fitted curve in the direction sought with a large enough effect; inconclusive means small, poorly fitted or top-dose-only effect, or another doubt; inactive means no such curve, though single readings can be large; an effect the other way counts as inactive or inconclusive.

SMILES	miR-21 reporter	TDP1 cell noCPT	uPA generation	TDP1 cell CPT	TDP1 inh
COc1ccc(N2CCN(CC(O)COc3ccc(F)cc3)CC2)cc1 (configuration not stated)	-5.2%	-12.7%	-5.2%	?	·
CCCOC(=O)c1ccc(NC(=O)C2C3C=CC(O3)C2C(=O)O)cc1 (configuration not stated)	-41.3%	-21.2%	-2.9%	-25.7%	-3.1%
Cc1c(C(=O)NCCN(C)C)oc2c1-c1nn(Cc3cccc(Cl)c3)cc1CC2	1.2%	?	·	?	0.0%
CC(=O)c1cccc(NC(=O)c2oc3c(c2C)-c2nn(Cc4ccc(Cl)cc4)cc2CC3)c1	2.1%	25.9µM*	·	?	7.8%
Cc1cccc(C)c1NC(=O)c1oc2c(c1C)-c1nn(Cc3ccccc3)cc1CC2	-2.4%	14.6µM*	·	18.4µM*	5.2%
CCn1cc2c(n1)-c1c(oc(C(=O)Nc3cccc(C)c3C)c1C)CC2	-3.4%	14.6µM*	·	?	1.3%
Cc1c(C(=O)N2CCCC2)oc2c1-c1nn(CC(=O)NC(C)c3ccccc3)cc1CC2 (configuration not stated)	25.1%	23.1µM*	·	?	10.3%
CCOC(=O)c1ccc(NC(=O)c2oc3c(c2C)-c2nn(Cc4ccccc4Cl)cc2CC3)cc1	1.8%	20.6µM*	·	20.6µM*	-5.2%
Cc1c(C(=O)O)oc2c1-c1nn(Cc3ccccc3Cl)cc1CC2	-9.5%	?	·	5.9%	-5.1%
C[C@]12C(=O)N(c3cccc(F)c3)C(=O)N1[C@@H]1c3ccccc3OC[C@@H]1[C@H]2c1ccccc1	8.2%	20.6µM*	-10.0%	11.6µM*	·
Cc1ccc(N2C(=O)N3[C@H]4c5ccccc5OC[C@@H]4[C@@H](c4ccccc4)[C@@]3(C)C2=O)cc1	12.3%	-3.0%	4.9%	6.3%	·
C[C@]12C(=O)N(c3ccc(C(F)(F)F)cc3)C(=O)N1[C@@H]1c3ccccc3OC[C@@H]1[C@H]2c1ccccc1	5.8%	?	12.9%	23.1µM*	·
C[C@]12C(=O)N(c3cccc(Cl)c3)C(=O)N1[C@@H]1c3ccccc3OC[C@@H]1[C@H]2c1ccccc1	·	11.6µM*	-3.3%	14.6µM*	-0.3%
C[C@]12C(=O)N(c3ccccc3)C(=O)N1[C@H]1c3ccccc3OC[C@@H]1[C@H]2c1ccccc1	·	?	-2.1%	?	0.7%
C[C@]12C(=O)N(c3ccccc3)C(=O)N1[C@@H]1c3ccccc3OC[C@@H]1[C@H]2c1ccccc1	4.3%	16.4µM*	5.6%	14.6µM*	·
Cc1c(Cl)cccc1NC(=O)Cn1nnc(C(=O)NCc2cccs2)c1N	13.9%	1.64µM*	-8.6%	5.17µM*	2.5%
Cc1ccccc1NC(=O)Cn1nnc(C(=O)NCc2cccs2)c1N	6.2%	6.51µM*	·	9.2µM*	4.7%
COc1cccc(-c2nnc(SCC(=O)N3CCc4ccccc43)o2)c1	2.1%	-7.8%	·	-0.3%	-4.3%[12.3 µM]
OCC1(Cc2cccc(Cl)c2)CCCN(Cc2sc(N3CCCC3)nc2Cl)C1 (configuration not stated)	1.1%	18.4µM*	4.0%	20.6µM*	4.8%
CCn1nc(C)c(CN2CCCC(CO)(Cc3ccccc3)C2)c1C (configuration not stated)	-2.7%	?	-4.2%	-20.0%	2.7%

Pulled by structure from the entries so far (six):
SMILES	miR-21 reporter	TDP1 cell noCPT	uPA generation	TDP1 cell CPT	TDP1 inh
Cc1cccc(C)c1NC(=O)c1oc2c(c1C)-c1nn(Cc3ccccc3)cc1CC2	-2.4%	14.6µM*	·	18.4µM*	5.2%
Cc1c(C(=O)NCCN(C)C)oc2c1-c1nn(Cc3cccc(Cl)c3)cc1CC2	1.2%	?	·	?	0.0%
Cc1ccc(N2C(=O)N3[C@H]4c5ccccc5OC[C@@H]4[C@@H](c4ccccc4)[C@@]3(C)C2=O)cc1	12.3%	-3.0%	4.9%	6.3%	·
C[C@]12C(=O)N(c3cccc(F)c3)C(=O)N1[C@@H]1c3ccccc3OC[C@@H]1[C@H]2c1ccccc1	8.2%	20.6µM*	-10.0%	11.6µM*	·
COc1cccc(-c2nnc(SCC(=O)N3CCc4ccccc43)o2)c1	2.1%	-7.8%	·	-0.3%	-4.3%[12.3 µM]
Cc1c(C(=O)O)oc2c1-c1nn(Cc3ccccc3Cl)cc1CC2	-9.5%	?	·	5.9%	-5.1%

More entries follow.
SMILES	miR-21 reporter	TDP1 cell noCPT	uPA generation	TDP1 cell CPT	TDP1 inh
COc1ccccc1/C=C/CN1CCCC(CO)(Cc2cccc(Cl)c2)C1 (configuration not stated)	6.6%	23.1µM*	5.5%	?	-2.7%
CC(C)(O)C#Cc1ccc(CN2CCCC(CO)(Cc3cccc(Cl)c3)C2)cc1 (configuration not stated)	12.1%	14.6µM*	?	14.6µM*	1.2%
CCn1nc(C)c(CN2CCCC(CO)(Cc3cccc(Cl)c3)C2)c1C (configuration not stated)	4.4%	16.4µM*	-13.0%	?	-2.6%
COc1cccc(CC2(CO)CCCN(C/C=C/c3ccccc3OC)C2)c1 (configuration not stated)	2.6%	?	0.3%	?	5.4%
COC(=O)c1ccc(COc2cccc(OC)c2)o1	-48.8%	7.7%	·	?	0.0%
COc1cc(Cl)c(CN2CCCC(CO)(Cc3cccc(Cl)c3)C2)cc1OC (configuration not stated)	14.9%	?	3.5%	18.4µM*	·
C[N+]1(CC(=O)c2ccc(I)cc2)CCCc2ccccc21 (configuration not stated)	·	7.08µM*	·	7.94µM*	·
O=C(C[N+]1(c2ccccc2)CCOCC1)c1ccccc1	·	-28.7%	·	?	·
O=C(C[N+]12CCCc3cccc(c31)CCC2)c1ccccc1	·	10µM*	·	?	·
COc1ccc(C(=O)NNC(=O)CCC(=O)NNC(=O)c2ccc(OC)cc2)cc1	0.2%	-9.4%	-0.6%	-11.7%	·
Cc1ccc(Nc2c(-c3ccc(Br)o3)nc3ccccn23)cc1	-35.6%	?	·	?	0.0%
Cc1ccc(Nc2c(-c3c[nH]c4ccccc34)nc3ccccn23)cc1	21.0%	20.6µM*	·	13µM*	14.7%
Cc1ccc2nc(-c3c[nH]c4ccccc34)c(Nc3ccccc3C)n2c1	-42.1%	3.26µM*	·	16.4µM*	6.4%
O=C1N(c2cccc(Cl)c2)C(c2ccc(Cl)cc2)N2CCCN12 (configuration not stated)	-6.1%	-27.6%	2.4%	-0.9%	-4.4%
CCN(CC)C(=O)c1nc(-c2cccc3ccccc23)no1	·	16.4µM*	·	?	·
Cc1cccc(CN2CCCC(C(=O)c3ccc4c5c(cccc35)CC4)C2)n1 (configuration not stated)	9.1%	13µM*	-8.5%	16.4µM*	11.1%
COc1ccccc1C(=O)C1CCCN(Cc2cccc3nccnc23)C1 (configuration not stated)	-5.7%	-26.8%	-0.4%	-23.4%	2.6%
COc1cc(CN2CCCC(C(=O)c3ccc4c5c(cccc35)CC4)C2)cc(OC)c1O (configuration not stated)	-0.5%	4.61µM*	?	4.61µM*	8.4%
Cc1cccc(CN2CCN(C3CCCC3)C(CCO)C2)n1 (configuration not stated)	-0.3%	-1.0%	8.6%	-1.4%	0.0%
COCCNC(=O)c1ccc2c(c1)ncn2-c1ccc(F)c(F)c1	-93.8%	-13.0%	0.0%	1.0%	1.0%
CCOC(=O)C1=C(O)CSC1=Nc1ccc(C)cc1	2.1%	4.6%	0.9%	-0.8%	?
COc1ccc(-c2c(C)oc3ccc(C)cc23)cc1	1.5%	0.1%	·	-29.2%	-3.1%
COc1ccc2oc3cc(C)[n+]([O-])c(-c4ccc(C)cc4)c3c2c1	17.5%	0.206µM*	8.9%	?	0.0%

Source: PubChem
